From patent US10463630B2, “Interaction of methylated LSD1 and CHD1, a compound inhibiting this interaction for use in therapy, and a screening method for such a compound” (Albert-Ludwigs-Universität Freiburg, priority 2015, dated 2019) come the findings set out here.

For experiment [1], the target named is T1, CHD1 double chromodomain (GST-CHD1 Chromo 1/2) (Homo sapiens, UniProt O14646).
T1 sequence (O14646 268-443 limits assumed): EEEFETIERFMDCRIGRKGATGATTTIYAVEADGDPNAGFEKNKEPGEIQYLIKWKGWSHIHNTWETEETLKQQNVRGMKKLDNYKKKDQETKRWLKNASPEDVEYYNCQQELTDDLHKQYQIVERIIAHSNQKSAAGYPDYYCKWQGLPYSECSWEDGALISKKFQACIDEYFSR
The experiment is described as follows: Protein profiling on protein-domain microarrays with LSD1 peptides. The experiment is classed as binding. The following applies: GST-fusion proteins. Here is the method:
To identify potential LSD1 K114me2 methyl-lysine reader proteins, protein profiling was performed on protein-domain microarrays using un- and dimethylated LSD1 peptides LSD1aa104-127 and LSD1aa104-127 K114me2, respectively (see also ref.^14). In this profiling assay, several GST-fusion proteins including CHD1 fused to GST were used. Other GST-fusions that were used were e.g. PhD-domain proteins (BPTF, ING2 or PHF2), BROMO-domain proteins (GCN5, TAF1-D1 or TAF1-D2), or BRCT-proteins (BRCA1, 53BP1 or Crb2).

In experiment [2] the target is T2, CHD1 D425A (Homo sapiens, UniProt O14646, D425A).
T2 construct: titration of LSD1aa104-127 K114me0, 1, 2, and 3 peptides to CHD1aa270-443; made in house; E. coli likely, inferred from the pET15b vector of the wild-type fragment
T2 sequence (O14646 270-443 D425A): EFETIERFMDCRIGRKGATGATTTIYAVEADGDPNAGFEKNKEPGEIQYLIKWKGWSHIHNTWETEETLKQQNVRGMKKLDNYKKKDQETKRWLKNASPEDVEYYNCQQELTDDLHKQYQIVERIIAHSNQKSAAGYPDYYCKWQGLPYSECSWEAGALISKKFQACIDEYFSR
Kind of experiment: ITC with CHD1 D425A mutant. Format: binding. The following applies: data not shown. The text has this: Amino acid residues 110-116 of the LSD1 peptide were modelled according to the electron density (FIG. 2c). […] This interaction involves residues Y295, W322, W325 from chromodomain 1 and D408 and D425 from chromodomain 2 (FIG. 2b and FIG. 5a). The methylammonium group of LSD1 K114 and side chains of W322 and W325 of CHD1 form cation-π interactions. […] It was therefore hypothesized that the R113-D425 interaction may be a discriminating feature of CHD1 binding either LSD1 K114me2 or H3K4me3 peptide and that the corresponding surface could be exploited for the design of inhibitors specifically interfering with LSD1 K114me2 but not H3K4me3 interaction (see FIG. 5c). […] Next, it was tested whether in vivo the interaction of CHD1 with LSD1 depends on LSD1 methylation. In the presence of G9A, endogenous CHD1 only coimmunoprecipitated with methylated Flag-LSD1, but not with Flag-LSD1 K114A (FIG. 2d). To investigate whether CHD1 and LSD1 K114me2 are present in the same protein complex, LNCaP cell extracts were subjected to sucrose gradient centrifugation. […] Furthermore, endogenously expressed CHD1 and LSD1 K114me2 coimmunoprecipitated with G9A from LNCaP cell extracts (FIG. 2f). Together, these observations identify CHD1 as a LSD1 K114me2 reader.
ITC experiments were performed at 25° C. with a MicroCal VP-ITC microcalorimeter (GE Healthcare). […]

Consider `CSCC[C@H](NC(=O)[C@H](CCC(=O)O)NC(=O)[C@H](CCCNC(=N)N)NC(=O)[C@H](Cc1ccc(O)cc1)NC(=O)[C@H](CCC(=O)O)NC(=O)[C@@H](NC(=O)[C@H](CCCCN)NC(=O)[C@H](C)NC(=O)[C@H](CCCNC(=N)N)NC(=O)[C@H](CCCCN(C)C)NC(=O)[C@H](CCCNC(=N)N)NC(=O)[C@H](CCCNC(=N)N)NC(=O)[C@H](CO)NC(=O)[C@@H](NC(=O)[C@H](CCCNC(=N)N)NC(=O)[C@H](CCCNC(=N)N)NC(=O)CNC(=O)[C@H](CCC(=O)O)NC(=O)[C@@H]1CCCN1C(=O)[C@@H](N)[C@@H](C)O)[C@@H](C)O)C(C)C)C(=O)N[C@@H](CC(=O)O)C(=O)N[C@@H](CCC(=O)O)C(=O)N[C@@H](CO)C(=O)N[C@@H](CC(C)C)C(=O)O` [LSD1 K114me2], for which, in experiment [1], the “interaction with CHD1 double chromodomain on microarray” value is recorded as “specifically interacted”. The “effect of D425A mutation in CHD1 on peptide binding” value in experiment [2] is “abolished the interaction”.
